# Antibody variant affinities, Ab-95 light chain, assay 2

From the AlphaSeq antibody data of Engelhart et al. 2022 (doi:10.1038/s41597-022-01779-4), copy in the FLAb collection.

All variants were tested on one target, the spike HR2 peptide PDVDLGDISGINAS (SARS-CoV-2).

Ab-95 is the parent antibody, in scFv form: VH, then a 15-residue (Gly4Ser)3 linker, then VL. The heavy chain is unchanged in all variants.
VH: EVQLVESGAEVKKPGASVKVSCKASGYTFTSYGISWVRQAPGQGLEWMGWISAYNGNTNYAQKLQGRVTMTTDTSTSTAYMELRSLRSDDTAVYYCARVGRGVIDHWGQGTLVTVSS
VL: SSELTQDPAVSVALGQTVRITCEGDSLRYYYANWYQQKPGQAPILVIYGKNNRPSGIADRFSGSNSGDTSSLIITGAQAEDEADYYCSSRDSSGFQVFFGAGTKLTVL

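Phage display of a naive human antibody library on the peptide gave the parent. Variants in AAYL52 differ from the parent at up to three CDR positions; double and triple changes were sampled at random. AlphaSeq pools MATa yeast showing the antibodies with MATalpha yeast showing the peptide. Binding brings cells together so that they mate, and sequencing counts the barcode pairs among the diploids. Scores were corrected for input abundance and mapped to Kd with protein pairs of known affinity run in the same pool. Each pool was mated in three replicate cultures.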

Variants are written as CDR1, CDR2 and CDR3 of the light chain (limits as in the source). Parent: EGDSLRYYYAN, GKNNRPS, SSRDSSGFQVF. This list gathers variants with a substitution at K50 (VL, numbered from residue 1). Scale: log10 of Kd in nM, estimated from mating counts; low values are strong binders. A mean of the replicates is given; it leaves out those without a signal. Where no diploid with the target was found in any replicate, the entry reads "no signal": below detection, most likely a poor binder, though not proof of it. Three control strains display no target. For library AAYL52, 28% of the pairings with them gave a signal, with a median of 3.91 and one signal in twenty below 2.90, so weak values seen in few replicates may be background.

CDR-L1,CDR-L2,CDR-L3,"mean, log10 nM",replicates with signal
EGDLLRYYYAN,GTNNRPS,SSRDSCGFQVF,3.04,2 of 3
EGDDLRYYYAN,GVNNLPS,SSRDSSGFQVF,4.14,1 of 3
EGDSLRYYYAN,GENNRQS,SSRDSSLFQVF,4.55,1 of 3
EGDSLRYYYAN,GDNKRPS,SSRDSSGFQVF,1.85,3 of 3
EGDSLRFYYAN,GGNKRPS,SSRDSSGFQVF,2.09,3 of 3
EGDSLRYYYAT,GENNRPS,SSDDSSGFQVF,3.47,3 of 3
NGDSLRYYYAR,GVNNRPS,SSRDSSGFQVF,3.64,3 of 3
EGDSLRYYYAN,CWNNRPS,SARDSSGFQVF,3.87,1 of 3
EGDSLRYYYAN,GCNNRPS,SSRDSSGFIVM,4.09,2 of 3
EGDSLRYYYAN,GPNNRTL,SSRDSSGFQVF,3.73,3 of 3
EGYSLRYYYAN,GGNNRPS,SSRDSSGFRVF,2.10,3 of 3
EGDSLSYYYAN,GENNRPS,SSRHSSGFQVF,2.16,3 of 3
EGDSLRYYYAN,GANNRHS,PSRDSSGFQVF,4.58,1 of 3
EGDSLRYYYAN,GENLRPS,SSPDSSGFQVF,1.38,3 of 3
EGDFLRYYYAN,GFNNWPS,SSRDSSGFQVF,4.27,1 of 3
EGDSPRYYYAN,GVNNRQS,SSRDSSGFQVF,5.39,1 of 3
EGDSLRYYYAN,GLNNFPS,SSVDSSGFQVF,4.12,2 of 3
EGDSLRDYYAN,GQNNRPS,SSRRSSGFQVF,2.16,3 of 3
EGDSLRYYYAN,GANLRPS,SSSDSSGFQVF,3.22,2 of 3
EGDSLRYYIAN,GGNNRVS,SSRDSSGFQVF,2.84,1 of 3
EGDSLRYYYAN,GANNRPS,SSRDSSGFQGM,2.56,3 of 3
EGDSLRYYYAN,QPNNRPE,SSRDSSGFQVF,no signal,0 of 3
EGDSLRYYYAN,GPKNRPS,SSRDWSGFQVF,no signal,0 of 3
EDDSLRYYYAN,GGNNRPS,SSRDSSGFQVF,3.29,3 of 3
EGDSLRYYYAN,GNNNRPS,SSRDSSWFQCF,5.78,1 of 3
WGDSLRYYYAN,GTNNRPS,SSRDSSGFQVK,3.69,1 of 3
EGDSLRPYYAN,SHNNRPS,SSRDSSGFQVF,3.52,3 of 3
EGDSLRAYYAN,GVNNRPS,GSRDSSGFQVF,3.46,3 of 3
YGDSLRMYYAN,GSNNRPS,SSRDSSGFQVF,2.73,3 of 3
EGDSLRYYYAH,GENNRPS,SSRDSSGYQVF,3.92,3 of 3
EVDSLRYYYAN,QMNNRPS,SSRDSSGFQVF,4.03,3 of 3
EGDSLFYYYAN,GLNNRPL,SSRDSSGFQVF,4.91,1 of 3
EGDSLRYYYAN,GWNMRPS,SSRDSSGFQHF,4.22,3 of 3
EGDSLRYYYAN,GGNNRPS,QSRSSSGFQVF,3.97,3 of 3
EGDSLRYYYAN,GRNRRPS,SSRDMSGFQVF,3.33,2 of 3
EGDSLRYWYNN,GNNNRPS,SSRDSSGFQVF,2.33,3 of 3
EGDSLRYYYAN,GFNNRPS,SSRDHSGFQVF,1.72,3 of 3
EGDSLRYYYAN,GENNRHS,SSRDSSGQQVF,1.98,2 of 3
EEDSLRYYYAN,GLNNRPS,SSRDWSGFQVF,3.20,2 of 3
EGYSRRYYYAN,GWNNRPS,SSRDSSGFQVF,4.46,1 of 3
EGDSLAYYYAN,GDNNRPS,SERDSSGFQVF,2.25,3 of 3
EGDSLRHYYAN,PDNNRPS,SSRDSSGFQVF,3.36,3 of 3
EGDSLRYYYAN,GSNNRTS,SSRDSSGFLVF,4.44,1 of 3
EGDSLRYYYAN,GENNRPS,SSRDSSGFPVF,2.44,3 of 3
EGDSSRYYYAN,GQNWRPS,SSRDSSGFQVF,4.38,1 of 3
EGDSLNYYYAN,GVNNRPS,SSRDSSGFGVF,3.29,3 of 3
EGDSTRYYYAN,GSNNRPS,SSRDSSGFQVF,3.10,2 of 3
EGDSLRYYYAM,GRNNRPS,SSRDSWGFQVF,no signal,0 of 3
EGDILRYYYAN,NPNNRPS,SSRDSSGFQVF,4.03,2 of 3
EGDSLRYYQAN,GWNNRPS,SERDSSGFQVF,no signal,0 of 3
EGDSLYYYYAN,GQNNRPS,SSRDSCGFQVF,3.27,3 of 3
EGDSLRYCYAN,GDNNRPS,SSRDSSGFQVF,1.90,3 of 3
EGDSLRYYYAN,GPNNRPS,SSTDSSGFQVF,3.66,2 of 3
EGDSLCYNYAN,GSNNRPS,SSRDSSGFQVF,1.65,3 of 3
EGDSLRYYYAN,GCNNRPS,SSRDSPGFQVF,no signal,0 of 3
EGDSLRYYLAN,GENNRPS,SSRDKSGFQVF,1.91,3 of 3
EGDSLRYYYAN,HHNNRPS,SSRDSSGFQVF,2.94,3 of 3
EGDSLRYYYAN,GVNNRPS,SSLDSSSFQVF,4.53,2 of 3
EGDSLRYYYAN,GFGNRPK,SSRDSSGFQVF,3.14,3 of 3
EGDSLKYYYAN,GINNRPS,SSRDSSGFQVF,2.40,2 of 3
EGDSLRYYYAN,VANNRPS,SSRDSAGFQVF,4.68,1 of 3
EGDSLYYYYAN,GCNNRPS,SSRDSCGFQVF,4.58,1 of 3

The 3 strongest on average among those seen in every replicate, once more:

CDR-L1,CDR-L2,CDR-L3,"mean, log10 nM",replicates with signal
EGDSLRYYYAN,GENLRPS,SSPDSSGFQVF,1.38,3 of 3
EGDSLCYNYAN,GSNNRPS,SSRDSSGFQVF,1.65,3 of 3
EGDSLRYYYAN,GFNNRPS,SSRDHSGFQVF,1.72,3 of 3